Compound activity from PubChem BioAssay.
miR-21 FLuc = miR-21 reporter, rising signal; Potency, µM (titrated, usually from 38.3 µM), without a hit: at the highest dose reporter change, positive = more light; AID 2288; 340,000 tested, under 10 active; HeLa miR-21 FLuc reporter, luciferase, 48 h; active = well fitted rising curve with a large enough effect; inconclusive = small, poorly fitted or top-dose-only effect; inactive = no such curve, though single readings can be large or run the other way;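 note: % of control where 0% means no effect; miR-21 action dims this reporter so a rising signal means less miR-21 action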
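HeLa cells stably expressing CMV-driven firefly luciferase with a downstream miR-21 binding sequence, endogenously expressing miR-21, were treated with titrations (up to about 40uM final) for 48 hours at 37 degree Celsius. Luciferase luminescence was read after lysis.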
TDP1 block = inhibitors of human tyrosyl-DNA phosphodiesterase TDP1; Q9NUW8; recombinant TDP1, AlphaScreen DNA substrate cleavage; Potency, µM (doses to about 130 µM), for the others: at the highest dose activity change, negative = inhibition, usual class: inhibitors; actives 0.28% (n = 350,000); AID 485290; also: potency is read from the fitted curve at half-maximal effect; % is scaled to controls: 0 for no effect and ±100 for the full control effect; nearly all actives have a fitted effect of over 40% in size
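Recombinant human Tdp1 (E. coli-expressed, 1 nM final) preincubated with compounds 15 min at room temperature, then 5'-biotin/3'-phosphotyrosine-FITC DNA substrate (15 nM final) added for 5 min. AlphaScreen beads (10 ug/ml final) added 10 min; cleavage lowers signal.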
uPA surface inh = inhibitors of cell surface uPA generation | Potency, µM (titrated, usually from 38.3 µM), for the others: at the top dose activity change, negative = inhibition, usual class: inhibitors | cell surface uPA generation assay, qHTS | actives 0.31% (n = 330,000); active = well fitted inhibition curve with a large enough effect; inconclusive = small, poorly fitted or top-dose-only effect; inactive = no such curve, though single readings can be large or run the other way; tested in mouse RAW 264.7 cells; also: potency is read from the fitted curve at half-maximal effect; % is scaled to controls: 0 for no effect and ±100 for the full control effect; nearly all actives have a fitted effect of over 55% in size
DT40 TDP1 CPT = growth inhibition of DT40 Tdp1-/-;hTDP1 cells with camptothecin (screen for TDP1 inhibitors); chicken DT40 Tdp1-/-;hTDP1 cells + 20 nM CPT, ATP luminescence, 48 h; Potency, µM (series often up to 46.2 µM), without a hit: at the top dose activity change, negative = growth inhibition, most hits filed as inhibitors; actives 12% (n = 420,000); also: potency is read from the fitted curve at half-maximal effect; % is scaled to controls: 0 for no effect and ±100 for the full control effect; nearly all actives have a fitted effect of over 55% in size
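Cell growth measured by CellTiter-Glo luminescence after a minimum 48 h, 37 C compound exposure with 20 nM CPT in Tdp1-knockout DT40 cells stably expressing hTDP1, seeded 400/well; qHTS titration format.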
TDP1 cell noCPT = qHTS for Inhibitors of human tyrosyl-DNA phosphodiesterase 1 (TDP1): qHTS in cells in absence of CPT; actives 15% (n = 420,000); Potency, µM (series often up to 46.2 µM), for the others: at the highest dose activity change, negative = growth inhibition, most hits filed as inhibitors; DT40 Tdp1-/- hTDP1 cells, no CPT, ATP luminescence, 48 h; also: potency is read from the fitted curve at half-maximal effect; % is scaled to controls: 0 for no effect and ±100 for the full control effect; nearly all actives have a fitted effect of over 55% in size
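No-CPT arm: Tdp1-/-;hTDP1 DT40 cells (400/well) plus compounds, incubated ≥48 hr at 37 °C. Readout CellTiter-Glo luminescence.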
An asterisk follows results filed as active; ? = inconclusive; . = no result given; [ ] = another dose, or the depositor's remark. This is a sample that favours compounds with a hit; in the whole collection about 16% have one here. Unless noted, calls follow the shape of the dose curve; as a rule, active = well fitted curve in the direction sought with a large enough effect; inconclusive = small, poorly fitted or top-dose-only effect, or another doubt; inactive = no such curve, though single readings can be large; an effect the other way counts as inactive or inconclusive.

Keys – A = miR-21 FLuc; B = TDP1 block; C = uPA surface inh; D = DT40 TDP1 CPT; E = TDP1 cell noCPT
COc1ccc2c(c1)OCC(Cc1ccc(OC)c(OC)c1)C2O (stereo not given)
  A: . | B: 4% | C: . | D: 0% | E: ?

COc1cc(C(=O)Oc2ccc3c(c2)OCC3=O)cc(OC)c1OC
  A: -4% | B: -1% | C: -7% | D: -12% | E: -20%

COc1cc(C(=O)N2C(=O)CCC2=O)cc(OC)c1OC
  A: 1% | B: 1% | C: 0% | D: 5% | E: 2%

CC(C)C(=O)NC(NC(=O)C(C)C)c1ccc([N+](=O)[O-])cc1
  A: 1% | B: 3% | C: 12% | D: -1% | E: -3%

CCC(C)Nc1nc2c(c(=O)[nH]c(=O)n2C)n1Cc1ccc(F)cc1 (stereo not given)
  A: -15% | B: . | C: . | D: -10% | E: ?

CC1CCN(S(=O)(=O)c2ccc3nc(Nc4cccc(C(F)(F)F)c4)ccc3c2)CC1
  A: 21% | B: 0% | C: . | D: 18µM* | E: ?

CC1CCN(S(=O)(=O)c2ccc3nc(Nc4ccc(C#N)cc4)ccc3c2)CC1
  A: ? | B: -5% | C: . | D: ? | E: 21µM*

COc1ccc2cc(C(=O)Nc3ccc(F)cc3)sc(=O)c2c1OC
  A: -8% | B: . | C: -4% | D: -20% | E: ?

Cc1ncc(CO)c(/C=N/NC(=O)c2cc3c(s2)CCCC3)c1O
  A: 18% | B: 8% | C: 6.3µM* | D: 5.8µM* | E: 7.3µM*

COc1ccc(C(=O)N/N=C/c2c(CO)cnc(C)c2O)cc1
  A: 14% | B: 8% | C: ? | D: 5.8µM* | E: 23µM*

Reformatted with each value named: part of the list above.
CC(C)C(=O)NC(NC(=O)C(C)C)c1ccc([N+](=O)[O-])cc1
  miR-21 FLuc: 1%
  TDP1 block: 3%
  uPA surface inh: 12%
  DT40 TDP1 CPT: -1%
  TDP1 cell noCPT: -3%

CCC(C)Nc1nc2c(c(=O)[nH]c(=O)n2C)n1Cc1ccc(F)cc1 (stereo not given)
  miR-21 FLuc: -15%
  TDP1 block: .
  uPA surface inh: .
  DT40 TDP1 CPT: -10%
  TDP1 cell noCPT: ?

(continued)
Keys – A = miR-21 FLuc; B = TDP1 block; C = uPA surface inh; D = DT40 TDP1 CPT; E = TDP1 cell noCPT
Cc1ncc(CO)c(/C=N/NC(=O)c2ccc(O)cc2)c1O
  A: -11% | B: -1% | C: -3% | D: 1% | E: -8%

COc1ccc(C(=O)OCC(=O)NCc2ccc3c(c2)OCO3)cc1S(=O)(=O)N1CCOCC1
  A: . | B: 1% | C: 2% | D: -17% | E: -10%

CC1=C(C(=O)OCc2ccccc2)C(c2ccc3ccccc3c2)NC(=O)N1CCCC(=O)O (stereo not given)
  A: -5% | B: . | C: 7% | D: 1% | E: -27%

COC(=O)CCCCCN1C(=O)NC(C2CC2)C(C(=O)OCc2ccccc2)=C1C (stereo not given)
  A: . | B: . | C: -10% | D: 16µM* | E: 13µM*

CCCCCCN(C(=O)CCCCCN1C(=O)NC(c2ccc([N+](=O)[O-])cc2)C(C(=O)OCc2ccccc2)=C1C)C(C(=O)NCCCC)C1CCCCC1 (stereo not given)
  A: . | B: 2%[56.1 µM] | C: 12% | D: ? | E: 5.8µM*

CC1=C(C(=O)OCc2ccccc2)C(c2ccc3c(c2)OCO3)NC(=O)N1CCCC(=O)O (stereo not given)
  A: . | B: . | C: 0% | D: ? | E: 0.15µM*

CCCCCCN(C(=O)CCCN1C(=O)NC(c2ccc(-c3ccccc3)cc2)C(C(=O)OCc2ccccc2)=C1C)C(C)C(=O)NCCCC (stereo not given)
  A: . | B: 1%[56.1 µM] | C: ? | D: ? | E: 16µM*

CCN(CC)CCCNC(=O)CCn1nc(-c2ccccc2)ccc1=O
  A: 4% | B: . | C: 7% | D: -4% | E: -22%

COCc1cc(C)nc2sc3c(=O)n(-c4cc(C)ccc4C)nnc3c12
  A: 9% | B: 2% | C: . | D: -6% | E: -2%

CCC(=O)N1CC2(CC(c3cccc(NC(=O)COc4ccc(Cl)cc4)c3)=NO2)C[C@@H]1C(N)=O (stereo not given in full)
  A: 8% | B: 4% | C: . | D: . | E: .

NC(=O)[C@H]1CC2(CC(c3cccc(NC(=O)COc4ccc(Cl)cc4)c3)=NO2)CN1C(=O)c1ccccc1C(=O)c1ccccc1 (stereo not given in full)
  A: ? | B: 6% | C: ? | D: 21µM* | E: 18µM*

NC(=O)[C@H]1CC2(CC(c3cccc(NC(=O)COc4ccc(Cl)cc4)c3)=NO2)CN1C(=O)c1ccc(Cl)cc1 (stereo not given in full)
  A: ? | B: -1% | C: ? | D: 18µM* | E: ?

CC1(C(=O)N2CC3(CC(c4cccc(NC(=O)COc5ccc(Cl)cc5)c4)=NO3)C[C@@H]2C(N)=O)CC1 (stereo not given in full)
  A: 12% | B: 6% | C: -7% | D: 13µM* | E: 15µM*
